Structures are written as SMILES.

The test has as its system Human immunodeficiency virus 2. In words: Antiviral activity against HIV2 ROD infected in human MT4 cells assessed as protection from virus-induced cytopathogenicity after 5 days by MTT assay. The format is functional, organism-based. Particulars: Human immunodeficiency virus 2, ISOLATE ROD, MT4, 120 h. In outline:
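MT-4 cells at 3 × 10^4 per well were infected with HIV (IIIB or ROD) at 50% cell culture infective doses. Graded compound concentrations were added immediately after infection. Plates were incubated for 5 days at 37 °C and viable cells were counted by MTT.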
(In general: Cytopathic effects are the visible damage that an infection or toxin causes in cultured cells.)

Consider `COc1cc(/C=C/C(=O)CC(=O)/C=C/c2ccc(O)c(OC)c2)ccc1O` [CURCUMIN], for which the IC50 is 37 nM.

The term IC50 denotes the concentration needed to halve the response being measured.

Values taken from ChEMBL document CHEMBL1154855 (Eur J Med Chem, 2010).
